Assay results from US20250109141A1, “BRD4 PROTEIN DEGRADER COMPOUND, AND PREPARATION METHOD AND USE THEREOF” (Miracure Biotechnology Limited, priority 2023, published 2025).

Target: BRD4 (Homo sapiens, UniProt O60885)
Test: BRD4 degradation assay (Western-blot / Simple Western) in 22RV1
Details: 22RV1 cells, target content as percentage of control (DMSO = 100%)

Cc1sc2c(c1C)C(c1ccc(C#CCN)cc1)=N[C@@H](CC13OCC(C)(CO1)CO3)c1nnc(C)n1-2 [Compound 9113]
BRD4 degradation of 22RV1 (200 nM 5 h): D (80%<D<100%)
